Tested on: purine nucleoside phosphorylase
Assay: HPLC-1 in vivo inhibition of purine nucleoside phosphorylase
Conditions: 150 mg/kg; PO
Protocol: PNP-4 activity for the compounds of Formula I is measured radiochemically by measuring the formation of [^14- C]-hypoxanthine from [^14- C]inosine [Biomedicine, 33, 39 (1980)] using human erythrocyte as the enzyme source. An in vivo inhibition of purine nucleoside phophorylase (HPLC-1) enzyme assay is used essentially as disclosed in the Annals of New York Academy of Sciences, Volume 451, Page 313 (1985) to further show the activity of the compounds of Formula I of the present invention. […] Clinically it has been shown that modulation and/or removal of T-cells by throacic duct drainage, lymphapheresis or total lymphoid irradiation gave partial to complete relief from rheumatoid arthritis in patients who were totally refractory to other forms of therapy (A. Tanay, et al, Arthritis and Rheumatism, Vol. 30, No. 1, p 1 (1987). S. Strober, et al, Annual of Internal Medicine, V-102, No. 4, 441-449 (1985); H. G. Nusslein, et al, Arthritis and Rheumatism, V-28, No. 11, 1205-1210 (1985); E. Brahn, et al, ibid, V-27, No. 5, 481-487 (1984), and J. Karsh, et al, ibid, V-24, No 7, 867-873 (1981)). […] (M. E. Weinblatt, et al, Arthritis and Rheumatism, V-30, No. 1 pp 11-17 (January, 1987); O. Forre, et al, Arthritis and Rheumatism, V-30, No. 1, pp 88-92 (January, 1987); M. Dougados, et al, Arthritis and Rheumatism, Vol. 30, No. 1, pp 83-87 (January, 1987);

Nc1nc2c(Cc3ccsc3)c(N)[nH]c2c(=O)[nH]1 [Example 9, 2,6-Diamino-3,5-dihydro-7-(3-thienylmethyl)-4H-pyrrolo [3,2-d]pyrimidin-4-one]
HPLC-1 Guanosine: 0.26 µM
HPLC-1 Inosine: 2.62 µM
